The source of these data is patent US11874276B2, “STING levels as a biomarker for cancer immunotherapy” (Dana-Farber Cancer Institute, Inc., priority 2018, dated 2024).

For this assay, the system named is H69AR cells, SPARCS high cell lines. Nature of the assay: IFN pulse-chase of SCLC and other cancer cell lines; qRT-PCR, immunoblot. The format is cell-based, human. The following applies: 10 min pulse with chase. As to the method: For IFN pulse experiments, cells were pulsed 10 minutes with IFN-γ 200 ng/mL or 10 ng/mL), IFN-α 10 000 U/mL), or IFN-β 10 000 U/mL), extensively washed, and chased in fresh media for an additional 24, 48 or 72 hours. To test drug effects on gene expression or protein secretion, IFN-γ pulsed H69AR cells were treated with DMSO, 1 μM MRT67307 or 100 nM Ruxolitinib for 24, 48 and 72 hours.
Protein was isolated from cell lines and measured by BCA (Pierce Biotechnology). […]
Total cellular RNA was extracted using the miRNeasy Mini Kit (Qiagen, Hilden, Germany) according to manufacturer's instructions. […] Quantitative reverse transcription PCR (qRT-PCR) of the indicated genes was performed using SYBR green PCR Master Mix (Applied Biosystems, Foster City, CA) and the Applied Biosystems 7300 Fast real-time PCR system and software. […]
Background: In qPCR the cycle at which signal appears reflects the starting amount.

B1: IFNβ: Recombinant human IFN-β protein from R&D Systems (protein, UniProt P01574 22-187, looked up)
Interferon beta: MSYNLLGFLQRSSNFQCQKLLWQLNGRLEYCLKDRMNFDIPEEIKQLQQFQKEDAALTIYEMLQNIFAIFRQDSSSTGWNETIVENLLANVYHQINHLKTVLEEKLEKEDFTRGKLMSSLHLKRYYGRILHYLKAKEYSHCAWTIVRVEILRNFYFINRLTGYLRN
For the molecule B1, the “SPARCS upregulation (MLT1C49, MLT1A)” value is “SPARCS upregulation”.
